# Results as given in US6660496B1 (priority 1993, dated 2003).
# The chains behind the UniProt entries cited, without tags or fusion partners.
# UniProt P35377, whole entry: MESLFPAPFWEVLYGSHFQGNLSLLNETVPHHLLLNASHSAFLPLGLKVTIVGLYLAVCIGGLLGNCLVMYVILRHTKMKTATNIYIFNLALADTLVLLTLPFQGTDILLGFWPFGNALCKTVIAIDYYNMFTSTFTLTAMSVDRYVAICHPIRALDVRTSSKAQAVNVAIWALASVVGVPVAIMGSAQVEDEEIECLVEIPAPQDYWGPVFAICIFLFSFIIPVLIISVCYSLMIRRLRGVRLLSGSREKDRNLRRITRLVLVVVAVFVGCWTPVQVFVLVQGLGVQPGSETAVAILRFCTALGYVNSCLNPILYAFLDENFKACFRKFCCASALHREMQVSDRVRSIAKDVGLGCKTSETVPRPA
# This is a selection: effects in other tests are not listed, and their absence says nothing.
# Target: kappa3 opioid receptor (Mus musculus, UniProt P35377)
# Assay: 3H-Diprenorphine binding in COS-7 cells expressing the kappa3 opioid receptor clone
# Conditions: 0.5 mg protein/tube, means±s.e.m.
# Procedure: The XhoI/BamHI fragment of the clone was subcloned into a pSRα expression vector at the XhoI/BamHI sites. COS-7 cells were transfected with 30 μg of plasmid DNA/150 mm plate using DEAE-dextran. The transfected cells were grown at 37° C. for 72 hours and the membranes were harvested for binding assays. Control binding was determined using COS-7 cells which were treated with DEAE-dextran and incubated under the same conditions as the transfected cells. ^3H-Diprenorphine binding was determined in samples with 0.5 mg protein/tube. All binding was assayed in triplicate, except for nonspecific binding in the pSRα which was assayed in duplicate. Only specific opioid binding (i.e., total minus nonspecific) is presented. Results are the means±s.e.m.
# The XhoI/BamHI fragment of the clone was obtained and subcloned into a pSRα expression vector at the XhoI/BamHI sites and then transfected the COS-7 cells, which were assayed for opioid binding after 72 hours. To control for the treatments, the binding in COS-7 cells was also examined, which cells were exposed to DEAE-dextran and incubated under the same conditions as the transfected cells. Additional studies using pCMV vectors and the same transfection techniques reveal binding values virtually identical to those seen in this control (data not shown). Opioid binding was determined with the antagonist ^3H-diprenorphine.
substance,measurement,setting,value
3H-Diprenorphine,3H-Diprenorphine Binding (cpm),"control COS-7 cells treated with DEAE-dextran only, specific binding",157 ± 20 cpm
same,3H-Diprenorphine Binding (cpm),"membranes of COS-7 cells transfected with the clone in pSRα, specific binding (total minus nonspecific)",789 ± 79 cpm
